Earlier results in patent publication US12605424B2 (priority 2019, dated 2026).

Protein sequences, listed by entry. Tags and fused reporters are not part of them. Lines headed by an entry give the natural chain unless they say otherwise; changes in a name come on top.
UniProt P37088: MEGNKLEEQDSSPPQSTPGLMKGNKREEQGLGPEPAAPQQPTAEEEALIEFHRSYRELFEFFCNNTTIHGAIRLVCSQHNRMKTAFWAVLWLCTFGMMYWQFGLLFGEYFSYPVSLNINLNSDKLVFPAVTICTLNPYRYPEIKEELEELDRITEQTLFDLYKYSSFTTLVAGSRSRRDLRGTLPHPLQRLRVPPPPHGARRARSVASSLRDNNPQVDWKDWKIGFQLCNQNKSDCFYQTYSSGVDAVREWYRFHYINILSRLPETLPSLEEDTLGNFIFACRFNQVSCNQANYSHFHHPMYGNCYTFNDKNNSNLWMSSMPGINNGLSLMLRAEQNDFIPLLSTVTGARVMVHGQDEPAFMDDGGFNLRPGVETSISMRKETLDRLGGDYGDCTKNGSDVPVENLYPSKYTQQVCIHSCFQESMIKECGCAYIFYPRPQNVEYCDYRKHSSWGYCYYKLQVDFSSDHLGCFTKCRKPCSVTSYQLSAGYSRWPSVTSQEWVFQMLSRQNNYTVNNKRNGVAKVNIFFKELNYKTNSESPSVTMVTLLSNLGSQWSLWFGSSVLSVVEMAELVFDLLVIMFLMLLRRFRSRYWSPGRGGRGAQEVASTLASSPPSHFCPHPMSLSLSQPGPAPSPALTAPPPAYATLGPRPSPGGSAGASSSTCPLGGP
UniProt P51168: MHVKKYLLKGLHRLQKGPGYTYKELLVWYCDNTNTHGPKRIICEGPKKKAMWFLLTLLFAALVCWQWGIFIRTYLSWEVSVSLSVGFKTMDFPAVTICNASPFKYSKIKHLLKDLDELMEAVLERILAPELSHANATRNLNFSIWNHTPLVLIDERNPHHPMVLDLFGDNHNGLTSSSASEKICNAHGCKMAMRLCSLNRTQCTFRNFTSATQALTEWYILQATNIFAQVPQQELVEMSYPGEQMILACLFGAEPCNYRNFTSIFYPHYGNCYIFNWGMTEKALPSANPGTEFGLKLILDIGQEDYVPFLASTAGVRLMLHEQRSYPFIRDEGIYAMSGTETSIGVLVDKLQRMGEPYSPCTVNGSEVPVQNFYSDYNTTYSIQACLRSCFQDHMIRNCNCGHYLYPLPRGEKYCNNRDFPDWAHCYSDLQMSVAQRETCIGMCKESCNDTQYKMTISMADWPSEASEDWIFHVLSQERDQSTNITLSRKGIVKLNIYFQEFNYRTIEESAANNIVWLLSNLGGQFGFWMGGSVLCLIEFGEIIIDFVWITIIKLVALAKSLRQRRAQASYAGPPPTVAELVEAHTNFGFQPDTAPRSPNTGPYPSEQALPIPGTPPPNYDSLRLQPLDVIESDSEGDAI
UniProt P51170: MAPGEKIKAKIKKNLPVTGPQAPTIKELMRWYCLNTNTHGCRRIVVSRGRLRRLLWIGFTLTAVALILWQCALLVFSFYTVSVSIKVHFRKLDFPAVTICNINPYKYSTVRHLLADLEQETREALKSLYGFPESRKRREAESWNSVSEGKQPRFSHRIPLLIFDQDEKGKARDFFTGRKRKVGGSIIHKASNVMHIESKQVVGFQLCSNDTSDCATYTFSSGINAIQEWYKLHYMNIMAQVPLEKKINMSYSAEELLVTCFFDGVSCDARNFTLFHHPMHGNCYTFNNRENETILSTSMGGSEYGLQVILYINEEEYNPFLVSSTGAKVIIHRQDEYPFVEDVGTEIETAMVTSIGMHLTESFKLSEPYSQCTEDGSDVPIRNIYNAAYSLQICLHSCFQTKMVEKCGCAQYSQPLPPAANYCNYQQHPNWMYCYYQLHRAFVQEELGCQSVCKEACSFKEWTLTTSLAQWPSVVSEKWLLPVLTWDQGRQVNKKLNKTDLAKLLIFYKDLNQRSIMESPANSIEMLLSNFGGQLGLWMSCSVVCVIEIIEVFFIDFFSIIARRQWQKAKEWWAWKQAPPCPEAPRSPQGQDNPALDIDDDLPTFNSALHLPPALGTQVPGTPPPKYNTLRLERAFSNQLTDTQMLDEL

Biological target: α, β, γ-hENaC (Homo sapiens, UniProt P37088+P51168+P51170)
Details: cited from earlier work

N=C(N)NC(=O)c1nc(Cl)c(N)nc1N [amiloride]
inhibition of Na^+ currents of ENaC injected oocytes: 90%
